Measured values published in ChEMBL document CHEMBL4819022, “Discovery of JNJ-63576253: A Clinical Stage Androgen Receptor Antagonist for F877L Mutant and Wild-Type Castration-Resistant Prostate Cancer (mCRPC)” (J Med Chem, 2021).

Chains of the proteins cited; added tags and fusions are not shown.
UniProt P10275, whole entry W742C: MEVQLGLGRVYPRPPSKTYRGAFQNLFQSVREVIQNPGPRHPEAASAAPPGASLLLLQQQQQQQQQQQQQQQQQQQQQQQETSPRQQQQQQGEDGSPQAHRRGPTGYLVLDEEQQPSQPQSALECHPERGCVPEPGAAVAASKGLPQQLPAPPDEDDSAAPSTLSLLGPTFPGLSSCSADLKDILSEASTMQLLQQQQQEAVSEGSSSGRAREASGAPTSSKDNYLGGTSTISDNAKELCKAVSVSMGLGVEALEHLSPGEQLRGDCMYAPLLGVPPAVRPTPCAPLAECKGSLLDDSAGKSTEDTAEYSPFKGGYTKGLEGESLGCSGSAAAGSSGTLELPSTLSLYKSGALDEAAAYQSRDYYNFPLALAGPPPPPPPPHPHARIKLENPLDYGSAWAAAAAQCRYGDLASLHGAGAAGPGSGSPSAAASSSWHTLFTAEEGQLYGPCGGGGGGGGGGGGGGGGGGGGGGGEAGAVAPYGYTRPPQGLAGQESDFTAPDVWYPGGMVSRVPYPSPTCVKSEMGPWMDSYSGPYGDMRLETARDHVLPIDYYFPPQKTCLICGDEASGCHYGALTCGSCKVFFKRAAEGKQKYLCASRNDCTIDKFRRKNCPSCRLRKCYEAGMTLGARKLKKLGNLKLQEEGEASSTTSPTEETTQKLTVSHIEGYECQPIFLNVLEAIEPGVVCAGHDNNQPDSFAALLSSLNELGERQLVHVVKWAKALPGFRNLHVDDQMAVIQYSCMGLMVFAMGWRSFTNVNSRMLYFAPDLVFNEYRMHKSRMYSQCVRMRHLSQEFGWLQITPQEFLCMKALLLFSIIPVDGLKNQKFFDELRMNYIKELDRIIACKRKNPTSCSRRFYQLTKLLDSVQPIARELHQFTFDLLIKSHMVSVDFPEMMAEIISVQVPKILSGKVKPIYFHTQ
UniProt P10275, whole entry F877L: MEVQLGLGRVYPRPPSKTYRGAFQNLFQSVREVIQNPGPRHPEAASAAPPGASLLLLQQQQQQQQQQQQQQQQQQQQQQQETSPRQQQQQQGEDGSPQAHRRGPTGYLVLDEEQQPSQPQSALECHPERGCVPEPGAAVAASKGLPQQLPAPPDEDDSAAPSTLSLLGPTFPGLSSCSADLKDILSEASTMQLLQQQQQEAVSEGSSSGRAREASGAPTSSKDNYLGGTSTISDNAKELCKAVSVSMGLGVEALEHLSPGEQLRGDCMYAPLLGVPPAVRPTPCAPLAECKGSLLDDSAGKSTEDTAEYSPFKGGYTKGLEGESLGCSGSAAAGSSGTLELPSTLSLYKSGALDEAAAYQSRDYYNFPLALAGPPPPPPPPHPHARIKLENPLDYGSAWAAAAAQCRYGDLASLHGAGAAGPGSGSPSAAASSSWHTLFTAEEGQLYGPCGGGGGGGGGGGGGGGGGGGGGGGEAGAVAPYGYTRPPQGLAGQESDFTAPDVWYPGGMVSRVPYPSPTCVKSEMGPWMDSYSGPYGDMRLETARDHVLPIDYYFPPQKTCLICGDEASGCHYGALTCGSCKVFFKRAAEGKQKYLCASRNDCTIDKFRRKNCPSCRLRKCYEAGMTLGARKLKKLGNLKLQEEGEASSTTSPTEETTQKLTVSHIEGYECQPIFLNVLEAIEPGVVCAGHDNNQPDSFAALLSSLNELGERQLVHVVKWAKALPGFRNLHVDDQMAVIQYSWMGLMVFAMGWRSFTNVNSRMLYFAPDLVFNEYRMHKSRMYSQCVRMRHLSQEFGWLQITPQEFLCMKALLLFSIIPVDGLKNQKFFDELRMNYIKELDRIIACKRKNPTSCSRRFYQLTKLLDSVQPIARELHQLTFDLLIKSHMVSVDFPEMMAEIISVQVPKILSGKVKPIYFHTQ
UniProt P10275, whole entry L702H: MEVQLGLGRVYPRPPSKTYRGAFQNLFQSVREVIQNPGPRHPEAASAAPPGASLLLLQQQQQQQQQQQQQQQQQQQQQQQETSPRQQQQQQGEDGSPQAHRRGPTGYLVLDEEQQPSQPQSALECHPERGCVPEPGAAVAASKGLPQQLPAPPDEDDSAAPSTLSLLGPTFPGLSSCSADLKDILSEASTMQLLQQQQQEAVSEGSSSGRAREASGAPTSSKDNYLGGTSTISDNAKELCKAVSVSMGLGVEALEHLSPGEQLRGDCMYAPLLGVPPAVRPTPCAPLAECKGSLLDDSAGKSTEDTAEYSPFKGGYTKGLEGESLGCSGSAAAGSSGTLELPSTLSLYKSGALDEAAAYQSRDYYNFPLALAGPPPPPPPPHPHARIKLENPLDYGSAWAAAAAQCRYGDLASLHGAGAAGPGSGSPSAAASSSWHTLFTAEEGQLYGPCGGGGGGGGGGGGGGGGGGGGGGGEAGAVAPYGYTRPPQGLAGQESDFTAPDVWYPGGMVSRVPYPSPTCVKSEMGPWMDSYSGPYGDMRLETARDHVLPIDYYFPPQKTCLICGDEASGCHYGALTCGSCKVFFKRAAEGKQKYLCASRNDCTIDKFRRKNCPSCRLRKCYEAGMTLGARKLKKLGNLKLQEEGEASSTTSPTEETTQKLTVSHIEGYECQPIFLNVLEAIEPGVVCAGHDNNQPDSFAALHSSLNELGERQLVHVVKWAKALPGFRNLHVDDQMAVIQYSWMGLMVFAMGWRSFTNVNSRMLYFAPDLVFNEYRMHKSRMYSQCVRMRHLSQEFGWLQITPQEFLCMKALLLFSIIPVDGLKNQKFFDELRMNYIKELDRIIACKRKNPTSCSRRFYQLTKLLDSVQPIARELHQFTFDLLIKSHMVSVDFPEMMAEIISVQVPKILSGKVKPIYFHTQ
UniProt P10275, whole entry T878A: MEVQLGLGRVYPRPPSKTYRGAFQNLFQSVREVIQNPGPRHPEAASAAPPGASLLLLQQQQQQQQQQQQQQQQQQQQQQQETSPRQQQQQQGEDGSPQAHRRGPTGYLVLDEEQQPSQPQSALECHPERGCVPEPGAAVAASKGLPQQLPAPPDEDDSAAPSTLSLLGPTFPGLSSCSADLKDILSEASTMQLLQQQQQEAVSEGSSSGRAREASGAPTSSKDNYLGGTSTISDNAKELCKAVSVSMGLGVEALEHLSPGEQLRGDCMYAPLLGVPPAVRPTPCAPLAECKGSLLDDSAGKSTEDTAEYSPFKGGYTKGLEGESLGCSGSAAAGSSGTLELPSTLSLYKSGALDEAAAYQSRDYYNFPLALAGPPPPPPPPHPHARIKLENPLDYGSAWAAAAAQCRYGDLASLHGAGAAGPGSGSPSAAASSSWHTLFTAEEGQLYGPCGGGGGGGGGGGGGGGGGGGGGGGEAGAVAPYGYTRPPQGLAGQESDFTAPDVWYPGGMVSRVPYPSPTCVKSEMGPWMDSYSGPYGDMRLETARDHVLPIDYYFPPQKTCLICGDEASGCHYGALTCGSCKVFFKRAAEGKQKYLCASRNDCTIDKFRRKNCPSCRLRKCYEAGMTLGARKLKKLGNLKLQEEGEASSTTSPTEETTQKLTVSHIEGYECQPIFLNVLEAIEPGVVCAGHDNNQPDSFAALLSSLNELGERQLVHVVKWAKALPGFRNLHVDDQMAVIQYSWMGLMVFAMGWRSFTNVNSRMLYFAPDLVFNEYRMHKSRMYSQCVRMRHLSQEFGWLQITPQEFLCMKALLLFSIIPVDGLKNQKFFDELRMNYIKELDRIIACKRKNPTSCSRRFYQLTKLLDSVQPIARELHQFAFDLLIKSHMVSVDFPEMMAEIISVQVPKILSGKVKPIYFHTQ
UniProt P10275, whole entry, looked up, stated change not applied: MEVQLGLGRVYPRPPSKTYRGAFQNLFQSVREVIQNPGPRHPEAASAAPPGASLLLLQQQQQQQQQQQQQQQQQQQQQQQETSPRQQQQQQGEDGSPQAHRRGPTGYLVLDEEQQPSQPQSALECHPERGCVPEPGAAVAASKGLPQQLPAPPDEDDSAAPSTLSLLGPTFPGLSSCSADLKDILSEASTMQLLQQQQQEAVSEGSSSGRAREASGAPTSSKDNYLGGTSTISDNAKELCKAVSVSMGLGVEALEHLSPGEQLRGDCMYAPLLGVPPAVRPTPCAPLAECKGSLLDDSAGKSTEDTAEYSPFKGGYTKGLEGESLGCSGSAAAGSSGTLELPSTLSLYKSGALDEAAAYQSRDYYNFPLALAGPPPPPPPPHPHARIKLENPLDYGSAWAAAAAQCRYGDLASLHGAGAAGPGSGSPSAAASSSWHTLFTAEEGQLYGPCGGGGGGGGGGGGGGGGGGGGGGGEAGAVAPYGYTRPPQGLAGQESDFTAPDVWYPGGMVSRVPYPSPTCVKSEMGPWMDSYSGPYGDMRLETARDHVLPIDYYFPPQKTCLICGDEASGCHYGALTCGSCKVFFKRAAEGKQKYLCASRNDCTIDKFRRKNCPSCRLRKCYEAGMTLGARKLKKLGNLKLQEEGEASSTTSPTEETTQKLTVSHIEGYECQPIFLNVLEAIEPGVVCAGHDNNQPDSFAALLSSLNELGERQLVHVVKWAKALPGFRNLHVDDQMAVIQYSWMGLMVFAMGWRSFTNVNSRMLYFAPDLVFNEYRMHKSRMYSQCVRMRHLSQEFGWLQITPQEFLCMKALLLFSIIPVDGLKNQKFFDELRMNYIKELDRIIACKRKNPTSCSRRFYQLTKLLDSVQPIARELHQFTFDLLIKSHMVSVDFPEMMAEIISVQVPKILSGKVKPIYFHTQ

Experiments:
Type in all cases: cell-based
[1] = test system: Androgen receptor (Homo sapiens), P10275 [W742C]; experiment: Antagonist activity at AR W742C mutant (unknown origin) transfected in human HepG2 cells cotransfected with ARE-LUC assessed as inhibition of R1881-induced receptor transactivation incubated for 48 hrs by steady-glo luciferase reporter gene assay; details: filed as antagonist
[2] = test system: Androgen receptor (Homo sapiens), P10275 [F877L]; experiment: Antagonist activity at AR F877L in human LNCaP cells assessed as reduction in R1881-induced PSA expression at 0.0114 to 25 uM after 24 hrs by Alexa Fluor 568 staining based immunofluorescence analysis; details: filed as antagonist, dose 0.0114-25 µM
Androgen receptor = Androgen receptor (Homo sapiens, UniProt P10275); experiment: Antagonist activity at AR wild type in human LNCaP cells assessed as reduction in R1881-induced PSA expression at 0.0114 to 25 uM after 24 hrs by Alexa Fluor 568 staining based immunofluorescence analysis; details: filed as antagonist, dose 0.0114-25 µM
[3] = test system: Androgen receptor (Homo sapiens), P10275 [L702H]; experiment: Antagonist activity at AR L702H mutant (unknown origin) transfected in human HepG2 cells cotransfected with ARE-LUC assessed as inhibition of R1881-induced receptor transactivation incubated for 48 hrs by steady-glo luciferase reporter gene assay; details: filed as antagonist
[4] = test system: Androgen receptor (Homo sapiens), P10275 [T878A]; experiment: Antagonist activity at AR T878A mutant (unknown origin) transfected in human HepG2 cells cotransfected with ARE-LUC assessed as inhibition of R1881-induced receptor transactivation incubated for 48 hrs by steady-glo luciferase reporter gene assay; details: filed as antagonist
[5] = test system: Androgen receptor (Homo sapiens), P10275 [UNDEFINED MUTATION]; experiment: Antagonist activity at AR W875L mutant (unknown origin) transfected in human HepG2 cells cotransfected with ARE-LUC assessed as inhibition of R1881-induced receptor transactivation incubated for 48 hrs by steady-glo luciferase reporter gene assay; details: filed as antagonist
[6] = test system: Androgen receptor (Homo sapiens), P10275 [F877L]; experiment: Antagonist activity at AR F877L in human LNCaP cells assessed as reduction in cytoplasm to nuclear translocation of AR at 0.0114 to 25 uM after 24 hrs in absence of AR agonist R1881 by Alexa Fluor 488 staining based immunofluorescence analysis; details: filed as antagonist, dose 0.0114-25 µM

Activity [1]: Active
Activity [2]: Active
Activity (Androgen receptor): Active
Activity [3]: Active
Activity [4]: Active
Activity [5]: Active
Activity [6]: Active
Compound: CN1CCC(Oc2ccc(N3C(=S)N(c4cnc(C#N)c(C(F)(F)F)c4)C(=O)C34CCC4)cc2)CC1

Activity calls are given as the source filed them. The calls are words filed in the database; no cut-off is given here.
